## Measured affinities in a library of Ab-91 heavy chain variants

Reference: Engelhart et al. 2022, doi:10.1038/s41597-022-01779-4. File: FLAb, binding data.

Target: peptide PDVDLGDISGINAS, taken from heptad repeat 2 (HR2) of SARS-CoV-2 spike.

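The parent was found by panning a naive human phage display library on the peptide. Library AAYL51 holds single substitutions and randomly drawn double and triple substitutions in the CDRs. In AlphaSeq, yeast of one mating type display the scFv and yeast of the other type display the target. The frequency of each diploid, read from paired DNA barcodes, reflects how well the two displayed proteins bind. The ratio of observed to expected reads was calibrated, replicate by replicate, on BCL2-family standards whose Kd was known from biolayer interferometry. Each pool was mated in three replicate cultures.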

Parent: Ab-91, a human scFv built as VL, three GGGGS repeats, VH. Only the CDRs of the heavy chain vary.
VL: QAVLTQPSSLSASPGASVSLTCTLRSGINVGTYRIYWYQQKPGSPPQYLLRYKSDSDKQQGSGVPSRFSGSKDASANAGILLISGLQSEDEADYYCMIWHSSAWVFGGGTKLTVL
VH: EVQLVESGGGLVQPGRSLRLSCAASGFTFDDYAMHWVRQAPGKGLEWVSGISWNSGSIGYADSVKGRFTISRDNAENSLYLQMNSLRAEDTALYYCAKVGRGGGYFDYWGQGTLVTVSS

Each variant is given by its three heavy chain CDRs, as the data file delimits them; those of the parent are GFTFDDYAMH, GISWNSGSIGYADSVK, VGRGGGYFDY. The read-out is the apparent dissociation constant on a log10 scale (nM): the lower, the stronger. Averages over replicates are reported, and they cover detected replicates only. "no signal" marks a missing value. The strain was present, yet no cells mated with the target were sequenced in any replicate, which points to weak or no binding. Three control strains display no target. For library AAYL51, 21% of the pairings with them gave a signal, with a median of 4.54 and one signal in twenty below 3.26, so weak values seen in few replicates may be background. For each scFv, signals with the empty controls are counted beside the result.

mean, log10 nM | seen in | control signals | CDR-H1 | CDR-H2 | CDR-H3
4.96 | 1 of 3 | 1 of 9 | GFTCDDYAMH | GISWNSGSIGYADSVK | VGRKGGYFDT
4.62 | 3 of 3 | 4 of 9 | GFTFDDYAMH | GISWNSGTIGYADSVK | KGRGGGYFWY
no signal | 0 of 3 | 0 of 9 | GFTFDDYAMH | GISWNKGSIGYADSVE | VGRGGGYCDY
4.46 | 1 of 3 | 1 of 9 | GFTFDDYVDH | GISWNSGSIGYADSVK | VGRGGGYFQY
no signal | 0 of 3 | 0 of 9 | GFTFDDYAMH | DISWNSGSIGYADSYK | VGRGGGYVDY
4.83 | 2 of 3 | 4 of 9 | GFKFDDYAMH | GISWNSGDIGYADSVK | VGRGGWYFDY
2.03 | 1 of 3 | 0 of 9 | GHTFDDYAMH | GISWNSGSIGYADSVK | VGRGGGYFDI
no signal | 0 of 3 | 1 of 9 | GFTFDDYAMH | EISWNSGSIGYADSVK | VGRGTGYFDY
5.41 | 3 of 3 | 5 of 9 | GFTFIDYAMH | GISWNSGSIGDADSVK | VGRGFGYFDY
no signal | 0 of 3 | 0 of 9 | GFTFDDYAMH | GISWNSGSIGYADSVK | VPWGGGYFDY
no signal | 0 of 3 | 1 of 9 | GFTFDDGAMH | GISWNSGSIGQADSVK | VGRGGGAFDY
no signal | 0 of 3 | 4 of 9 | GFTFDDYAMH | GLEWNSGSIGYADSVK | VGWGGGYFDY
3.39 | 2 of 3 | 1 of 9 | GFTFDDYAMH | GISWNSRSIGCADSVK | VGRGLGYFDY
4.13 | 1 of 3 | 0 of 9 | GFTFDCYKMH | GISWNSGSIGYADTVK | VGRGGGYFDY
no signal | 0 of 3 | 1 of 9 | WFTFDDYAMH | GISWNSGGIGYADSVK | VGTGGGYFDY
5.92 | 1 of 3 | 3 of 9 | GFTQDDYAMH | GISWNSGSIGSADSVK | VGRTGGYFDY
no signal | 0 of 3 | 0 of 9 | GFTFDDYAML | GISWNSGSIGYAASVK | VHRGGGYFDY
no signal | 0 of 3 | 1 of 9 | SFTFDDYAMH | GISWESGSIGYAYSVK | VGRGGGYFDY
3.66 | 1 of 3 | 3 of 9 | GMTFDDYAMH | GISWNSGSIGYADSVK | VGRFGNYFDY
2.95 | 1 of 3 | 0 of 9 | GFYFDDYAMH | GISWNSKSIGYADSVK | VGTGGGYFDY
4.07 | 1 of 3 | 2 of 9 | GRGFDDPAMH | GISWNSGSIGYADSVK | VGRGGGYFDY
no signal | 0 of 3 | 0 of 9 | GFTFDDYAMH | GAGWNSGHIGYADSVK | VGRGGGYFDY
no signal | 0 of 3 | 0 of 9 | GFTFDQYAMH | GISWNSGSIGVADSVK | VGRGGGYFDY
4.44 | 2 of 3 | 3 of 9 | GFTFDDYTMH | GIWWNSCSIGYADSVK | VGRGGGYFDY
1.96 | 3 of 3 | 1 of 9 | GFTFDDYAMH | GISWNSGNIGYADSVK | VGRGGGYPDG
no signal | 0 of 3 | 1 of 9 | GFTFDDYAMH | GISWNSGRIGYADSVK | GKRGGGYFDY
4.77 | 1 of 3 | 5 of 9 | GFTFDDYAMH | GITWNSGSIGYAWSVK | VGRGGGYFDQ
no signal | 0 of 3 | 0 of 9 | GFTFDDYAMP | GKSWNSGSIGYADSVK | VGFGGGYFDY
no signal | 0 of 3 | 0 of 9 | GFTFDDYAMH | GISWNSGSIGYADHVM | VGRGGGYFCY
3.23 | 1 of 3 | 0 of 9 | GFTFDDYAMH | GISWNSGSIGYADHVK | VGRGMGYFDY
no signal | 0 of 3 | 1 of 9 | GGTFDDYAMH | GISWNSGSIGYADSVK | IGRGGGYFPY
no signal | 0 of 3 | 0 of 9 | GFTFDDYAMH | GISWNSGIIGYADSVK | VIRGGGSFDY
2.84 | 3 of 3 | 4 of 9 | GFTFDCYAMH | GISWNSGSIGYADSVK | VGRGPPYFDY
3.17 | 1 of 3 | 1 of 9 | GFTFDDYAMH | GISWNSGSQGYADSVK | VGRGGGYFCY
no signal | 0 of 3 | 4 of 9 | GFTFDDYAQH | GISWNSGSDGYADSVK | VGRGGGTFDY
1.05 | 3 of 3 | 3 of 9 | GFTFDDYAMH | GISMNSGSIGYADSVI | VGRGGGYFDY
3.89 | 1 of 3 | 0 of 9 | GFTFDDYAMH | RIDWNSGSIGYADSVK | VGRRGGYFDY
4.73 | 3 of 3 | 8 of 9 | GFTFDDYAMH | GISWNSGSIGYLDSVK | EGRGTGYFDY
5.43 | 2 of 3 | 2 of 9 | GFTFDDYAMH | GISWNSGSIGYADSVK | VGRGGKYFDE
no signal | 0 of 3 | 0 of 9 | GYTFDDYAMH | IISWNSGSIGYADDVK | VGRGGGYFDY
no signal | 0 of 3 | 0 of 9 | GFTFDDYAMH | GISINSGSIQYEDSVK | VGRGGGYFDY
6.01 | 1 of 3 | 1 of 9 | GFTPDDYAMH | GISWNSDSIGYADSVK | VGRNGGYFDY
no signal | 0 of 3 | 0 of 9 | GFTFDMYAMH | GISWNSGSIDYADSIK | VGRGGGYFDY
2.87 | 2 of 3 | 2 of 9 | GFTFDDYAMH | GIEFNSGSFGYADSVK | VGRGGGYFDY
no signal | 0 of 3 | 1 of 9 | GFTFDDYAMH | GISWNSGSIGYAFSVK | VGRGGGPFYY
no signal | 0 of 3 | 5 of 9 | GGTFDDYAMH | GISWNNGSIGYADSVK | VSRGGGYFDY
3.95 | 2 of 3 | 1 of 9 | GFLFDDYAMH | GISRNSGSIGYADSVK | VGRPGGYFDY
no signal | 0 of 3 | 0 of 9 | EFTFEDYAMH | GISWNSGSIGYADSVK | VGRGGGIFDY
4.97 | 2 of 3 | 2 of 9 | GFTFDDYAMH | GISWMSSCIGYADSVK | VGRGGGYFDY
2.88 | 1 of 3 | 1 of 9 | MYTFDDYANH | GISWNSGSIGYADSVK | VGRGGGYFDY
3.48 | 1 of 3 | 2 of 9 | GETFDDYADH | GISWNSGSIGYADSVK | VGFGGGYFDY
5.22 | 3 of 3 | 4 of 9 | GFTFDDYAMH | GISWFSGSIHYADSVK | VGRGGGYFPY
1.33 | 3 of 3 | 7 of 9 | GFTFDAYAMH | GISWNSGSIGYADSAK | VGRGGGTFDY
4.12 | 1 of 3 | 2 of 9 | RFTFDDYAMH | GISWNSGSIDYADSVK | VGRGGGYFDC
1.76 | 3 of 3 | 5 of 9 | GFTFDDYAMH | GISSCSGSIGYADSVS | VGRGGGYFDY
3.68 | 2 of 3 | 1 of 9 | AFTFDDYAMH | GISWNSGSIGYDDSKK | VGRGGGYFDY
4.76 | 3 of 3 | 4 of 9 | GFTKDDYAMH | GISWNSGSIGYADSVK | VGYGGMYFDY
no signal | 0 of 3 | 0 of 9 | GFTFDDYAMK | GISWNSGNIGYADSVK | VGRGEGYFDY
no signal | 0 of 3 | 1 of 9 | GFTFDSQAMH | GISWNSGSIGYADSVK | VGRGGGYFMY
no signal | 0 of 3 | 4 of 9 | GFTFDDYAMH | GIRWNSGSIGYAKSVK | VDRGGGYFDY
no signal | 0 of 3 | 1 of 9 | GFTFDDYAMH | GISWYSGSIGYQDPVK | VGRGGGYFDY
no signal | 0 of 3 | 0 of 9 | GFTFDDYAMH | GISWNSGSIGYADSVR | VDRGGGWFDY
4.76 | 1 of 3 | 2 of 9 | GFTFDDYAMV | GISPNSGSIGYADSVK | VGPGGGYFDY
no signal | 0 of 3 | 2 of 9 | GFTFDDYAMH | GISQNSGIIGYADSVK | VGRGGGYFHY
4.13 | 1 of 3 | 0 of 9 | GFTFDDWAMH | GISWNSGSIGYQDSVK | VGRGGNYFDY
no signal | 0 of 3 | 0 of 9 | GFTFDDYAFH | GISWNSGSIGYDDSVK | VGRGAGYFDY
no signal | 0 of 3 | 0 of 9 | GFTDDDYAMH | GESWNSGSIGYADSRK | VGRGGGYFDY
no signal | 0 of 3 | 1 of 9 | GFTFDSYAMH | GISWNSGSIGYADSVK | VGRGGSYNDY
2.87 | 3 of 3 | 6 of 9 | GFWFDDYAMH | GISQNSGSIGYADSVK | VCRGGGYFDY
5.27 | 3 of 3 | 8 of 9 | GFMFDDNAMH | GISWNSGNIGYADSVK | VGRGGGYFDY

Repeated from above, the 10 best binders with a signal in all replicates:

CDR-H1	CDR-H2	CDR-H3	mean, log10 nM	seen in	control signals
GFTFDDYAMH	GISMNSGSIGYADSVI	VGRGGGYFDY	1.05	3 of 3	3 of 9
GFTFDAYAMH	GISWNSGSIGYADSAK	VGRGGGTFDY	1.33	3 of 3	7 of 9
GFTFDDYAMH	GISSCSGSIGYADSVS	VGRGGGYFDY	1.76	3 of 3	5 of 9
GFTFDDYAMH	GISWNSGNIGYADSVK	VGRGGGYPDG	1.96	3 of 3	1 of 9
GFTFDCYAMH	GISWNSGSIGYADSVK	VGRGPPYFDY	2.84	3 of 3	4 of 9
GFWFDDYAMH	GISQNSGSIGYADSVK	VCRGGGYFDY	2.87	3 of 3	6 of 9
GFTFDDYAMH	GISWNSGTIGYADSVK	KGRGGGYFWY	4.62	3 of 3	4 of 9
GFTFDDYAMH	GISWNSGSIGYLDSVK	EGRGTGYFDY	4.73	3 of 3	8 of 9
GFTKDDYAMH	GISWNSGSIGYADSVK	VGYGGMYFDY	4.76	3 of 3	4 of 9
GFTFDDYAMH	GISWFSGSIHYADSVK	VGRGGGYFPY	5.22	3 of 3	4 of 9